The test system of assay [1] is fMLP-dependent Ca2+ release in differentiated HL60 cells. The assay can be described thus: fMLP-dependent Ca2+ release in fura-2 loaded DMSO-differentiated HL60 cells. Particulars: 10 μM compound, 250 nM fMLP; result in words.
The test system of assay [2] is GFP-PHAkt translocation (PI3Kγ activation) in HL60 cells. The assay can be described thus: fMLP-dependent GFP-PH-Akt translocation in differentiated HL60 cells. The conditions noted are these: 10 μM compound; result in words.
Assay [3] deals with ERK1 and ERK2 activation in differentiated HL60 cells. The conditions noted are these: 10 μM compound, 1 μM fMLP, result in words.
Assay [4] addresses T1, Gβ1γ2 (UniProt P54311+P63212). The conditions noted are these: read-out: IC50 ELISA; Table 20, competition ELISA for SIGK binding; data from Bonacci et al. (2006); cited from earlier work. Background: An ELISA detects its analyte on a solid surface through an enzyme-linked reagent.
Assay [5] addresses T1, Gβ1γ2. The assay can be described thus: Competition phage ELISA: inhibition of SIGK-phage binding to immobilized biotinylated Gβ1γ2. Further details: species or system rat.
The subject of a further assay is PLCβ2. The assay can be described thus: Gβ1γ2-dependent activation of purified PLCβ2. The conditions noted are these: for effect on Gβ1γ2-dependent activation of PLCβ2: result in words.
For another assay, the system named is PLCβ3. The assay can be described thus: Gβ1γ2-dependent activation of purified PLCβ3.
Another assay has as its system PI3Kγ. The conditions noted are these: read-out: IC50 for inhibition of Gβγ-dependent PI3Kγ regulation.
The mark [6] stands for this setting: read-out: IC50 μM, Table 18, compounds identified in Elisa screen.

Like-named read-outs stand apart in the source and are kept apart here.

With `O=C(O)C1CC23C(Cl)C(Cl)C(Cl)C(Cl)C2(CC1c1c2ccc(=O)c(O)c-2oc2c(O)c(O)ccc12)C3(Cl)Cl` (centres unmarked), the “effect on fMLP-induced Ca^2+ increase” value in assay [1] was “attenuated”. The “effect on fMLP-dependent translocation of GFP-PHAkt to the membrane” value in assay [2] is “inhibited”. The “effect on fMLP-induced activation of ERK1 and ERK2” value in assay [3] is “did not block”; in assay [3] (listed as NSC158110), “do not interfere”. Also, at Gβ1γ2 [4], the IC50 is 0.25 µM.
On to `Ic1ccc2c(c1)N(c1ccccc1)c1cc(Nc3ccc4nc5ccc(I)cc5[n+](-c5ccccc5)c4c3)ccc1N2`, for which the IC50 turned out to be 2 µM on Gβ1γ2 [5] (Table 8); 2 µM on Gβ1γ2 [5] (read-out: ELISA, Table 19); 2 µM at Gβ1γ2 [5] (setting [6]); 2 µM at Gβ1γ2 [5] (read-out: IC50 in phage ELISA (SIGK competition)); 12 µM in the assay on PI3Kγ. The PLCb2 entry with PLCβ2 (Table 19, effector IC50) is “NE”. The “effect on Gβ1γ2-dependent activation of PLCβ2” value in the assay with PLCβ2 is reported as “does not affect”. Also, the PLCb3 entry in the assay with PLCβ3 (Table 19, effector IC50) is recorded as “NE”. Besides, the “effect on Gβ1γ2-dependent activation of PLCβ3” value in the assay with PLCβ3 (result in words) is recorded as “does not affect”.
`CCc1cc2c(c3ccc(C(=O)CBr)cc13)CCCC2`: the IC50 at Gβ1γ2 [5] (Table 8) and at Gβ1γ2 [5] (setting [6]) was 0.1 µM in each case.
As for `O=C(O)/C=C/c1c2ccc(=O)c(O)c-2oc2c(O)c(O)ccc12` [(E)-3-(4,5,6-trihydroxy-3-oxo-3H-xanthen-9-yl)acrylic acid], the “effect on Gβ1γ2-dependent activation of PLCβ2” value in the assay with PLCβ2 is given as “appeared to block PLC-β2 activation more effectively than PLC-β3 activation”. The “effect on fMLP-induced activation of ERK1 and ERK2” value in assay [3] is listed as “do not interfere”. Besides, at Gβ1γ2 [4], the IC50 was 0.2 µM.
As for `CC1C2C=CC1C(c1c3ccc(=O)c(O)c-3oc3c(O)c(O)ccc13)C2C(=O)O` (single isomer, unassigned), the IC50 at Gβ1γ2 [4] was 0.7 µM.

(Values after patent publication US8975259B2, “Compositions and methods for inhibiting G protein signaling” (University of Rochester, priority 2007, dated 2015).)
